These results are taken from patent US8815918B2, “Imidazo [2, 1-B] [1, 3, 4] thiadiazole derivatives” (Centro Nacional de Investigaciones Oncologicas (CNIO), priority 2009, dated 2014).

Protein sequences, listed by entry. Tags and fused reporters are not part of them.
UniProt P42336, whole entry: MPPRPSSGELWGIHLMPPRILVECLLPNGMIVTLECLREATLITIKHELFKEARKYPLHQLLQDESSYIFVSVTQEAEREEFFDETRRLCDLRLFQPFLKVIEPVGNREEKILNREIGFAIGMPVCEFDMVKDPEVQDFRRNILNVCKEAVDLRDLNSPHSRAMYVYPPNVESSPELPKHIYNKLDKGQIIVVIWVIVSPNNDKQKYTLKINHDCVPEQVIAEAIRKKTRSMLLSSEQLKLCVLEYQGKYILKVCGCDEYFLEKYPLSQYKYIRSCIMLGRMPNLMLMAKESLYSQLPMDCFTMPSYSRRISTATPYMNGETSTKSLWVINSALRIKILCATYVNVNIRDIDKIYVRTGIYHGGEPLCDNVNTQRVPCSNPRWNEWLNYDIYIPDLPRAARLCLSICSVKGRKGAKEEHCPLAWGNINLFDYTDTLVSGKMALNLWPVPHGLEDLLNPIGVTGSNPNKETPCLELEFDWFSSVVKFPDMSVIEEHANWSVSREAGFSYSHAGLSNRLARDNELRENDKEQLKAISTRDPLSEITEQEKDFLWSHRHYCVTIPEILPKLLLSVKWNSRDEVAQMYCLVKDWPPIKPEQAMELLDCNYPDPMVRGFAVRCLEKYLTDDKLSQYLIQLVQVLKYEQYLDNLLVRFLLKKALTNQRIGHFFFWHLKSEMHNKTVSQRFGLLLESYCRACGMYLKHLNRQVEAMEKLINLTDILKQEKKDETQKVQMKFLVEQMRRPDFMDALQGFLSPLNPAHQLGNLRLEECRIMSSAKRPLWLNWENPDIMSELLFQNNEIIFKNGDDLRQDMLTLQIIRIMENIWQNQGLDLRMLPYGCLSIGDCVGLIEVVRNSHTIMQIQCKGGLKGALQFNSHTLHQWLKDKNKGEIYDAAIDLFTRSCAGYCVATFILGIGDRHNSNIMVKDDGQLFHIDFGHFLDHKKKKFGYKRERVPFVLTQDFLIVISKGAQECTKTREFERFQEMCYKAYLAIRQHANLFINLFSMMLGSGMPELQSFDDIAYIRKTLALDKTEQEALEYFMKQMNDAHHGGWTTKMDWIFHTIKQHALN
UniProt P27986, whole entry partner: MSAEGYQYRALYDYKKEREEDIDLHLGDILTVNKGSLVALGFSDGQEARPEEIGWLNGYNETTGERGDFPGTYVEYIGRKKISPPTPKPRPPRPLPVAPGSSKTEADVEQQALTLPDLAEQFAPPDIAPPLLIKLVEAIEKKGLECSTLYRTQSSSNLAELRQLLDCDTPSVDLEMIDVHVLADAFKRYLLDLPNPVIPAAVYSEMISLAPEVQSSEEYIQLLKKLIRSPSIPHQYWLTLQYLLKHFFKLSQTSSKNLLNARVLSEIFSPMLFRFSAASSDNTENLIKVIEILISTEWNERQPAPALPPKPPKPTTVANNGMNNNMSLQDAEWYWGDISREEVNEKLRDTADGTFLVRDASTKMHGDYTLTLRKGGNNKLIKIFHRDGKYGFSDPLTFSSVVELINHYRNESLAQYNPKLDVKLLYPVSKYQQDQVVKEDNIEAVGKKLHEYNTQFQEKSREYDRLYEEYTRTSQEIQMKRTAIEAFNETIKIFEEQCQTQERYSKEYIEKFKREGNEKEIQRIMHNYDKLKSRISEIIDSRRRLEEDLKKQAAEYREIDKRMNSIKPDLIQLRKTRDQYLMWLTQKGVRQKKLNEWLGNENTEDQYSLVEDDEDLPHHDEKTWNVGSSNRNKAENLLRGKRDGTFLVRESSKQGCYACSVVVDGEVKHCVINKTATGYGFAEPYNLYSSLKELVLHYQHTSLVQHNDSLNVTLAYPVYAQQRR

For the assay, the target named is PI3K (p110α/p85α) (Homo sapiens (Human), UniProt P42336). Description: PI3K Activity Assay (ADP Hunter Plus). As to conditions: read-out: Biological activity in PI3Kα, semi-quantitative. Here is the method:
The kinase activity was measured by using the commercial ADP Hunter™ Plus assay available from DiscoveRx (#33-016), which is a homogeneous assay to measure the accumulation of ADP, a universal product of kinase activity. The enzyme, PI3K (p110α/p85α was purchased from Carna Biosciences (#07CBS-0402A). The assay was done following the manufacturer recommendations with slight modifications: Mainly the kinase buffer was replace by 50 mM HEPES, pH 7.5, 3 mM MgCl2, 100 mM NaCl, 1 mM EGTA, 0.04% CHAPS, 2 mM TCEP and 0.01 mg/ml BGG. The PI3K was assayed in a titration experiment to determine the optimal protein concentration for the inhibition assay. To calculate the IC50 of the ETP-compounds, serial 1:5 dilutions of the compounds were added to the enzyme at a fixed concentration (2.5 μg/mL. The enzyme was preincubated with the inhibitor and 30 μM PIP2 substrate (P9763, Sigma) for 5 min and then ATP was added to a final 50 μM concentration. Reaction was carried out for 1 hour at 25° C. Reagent A and B were sequentially added to the wells and plates were incubated for 30 min at 37° C. Fluorescence counts were read in a Victor instrument (Perkin Elmer) with the recommended settings (544 and 580 nm as excitation and emission wavelengths, respectively). Values were normalized against the control activity included for each enzyme (i.e., 100% PI3 kinase activity, without compound). […]

The structures appear in SMILES notation. pIC50: −log10 of the molar value.

As for `COc1ncc(-c2nn3c(-c4ccnnc4)cnc3s2)cc1NS(=O)(=O)c1ccc(F)cc1F`, the pIC50 is more than 7.00.
